Experimental data taken from ChEMBL document CHEMBL5705896 (ACS Chem Biol, 2013).
Activity calls are given as the source filed them. No cut-off for these calls is given here.

By UniProt entry, the sequences of proteins in these tests, tags left out. Where a name states a change or a piece, a line headed by the entry shows the natural chain unless it says otherwise.
UniProt Q9Y5N1: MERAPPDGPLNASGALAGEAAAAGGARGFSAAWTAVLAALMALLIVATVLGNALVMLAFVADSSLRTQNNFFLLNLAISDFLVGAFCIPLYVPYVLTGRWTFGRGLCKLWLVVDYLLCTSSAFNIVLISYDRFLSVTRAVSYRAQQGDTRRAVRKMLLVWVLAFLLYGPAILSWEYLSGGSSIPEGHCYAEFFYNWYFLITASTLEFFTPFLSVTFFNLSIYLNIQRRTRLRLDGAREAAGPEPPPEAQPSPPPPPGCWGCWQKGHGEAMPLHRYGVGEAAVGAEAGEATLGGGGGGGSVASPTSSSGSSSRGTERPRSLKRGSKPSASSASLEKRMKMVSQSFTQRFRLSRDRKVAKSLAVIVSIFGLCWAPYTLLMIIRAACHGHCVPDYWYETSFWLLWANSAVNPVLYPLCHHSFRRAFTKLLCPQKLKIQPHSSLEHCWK
UniProt P23975, whole entry: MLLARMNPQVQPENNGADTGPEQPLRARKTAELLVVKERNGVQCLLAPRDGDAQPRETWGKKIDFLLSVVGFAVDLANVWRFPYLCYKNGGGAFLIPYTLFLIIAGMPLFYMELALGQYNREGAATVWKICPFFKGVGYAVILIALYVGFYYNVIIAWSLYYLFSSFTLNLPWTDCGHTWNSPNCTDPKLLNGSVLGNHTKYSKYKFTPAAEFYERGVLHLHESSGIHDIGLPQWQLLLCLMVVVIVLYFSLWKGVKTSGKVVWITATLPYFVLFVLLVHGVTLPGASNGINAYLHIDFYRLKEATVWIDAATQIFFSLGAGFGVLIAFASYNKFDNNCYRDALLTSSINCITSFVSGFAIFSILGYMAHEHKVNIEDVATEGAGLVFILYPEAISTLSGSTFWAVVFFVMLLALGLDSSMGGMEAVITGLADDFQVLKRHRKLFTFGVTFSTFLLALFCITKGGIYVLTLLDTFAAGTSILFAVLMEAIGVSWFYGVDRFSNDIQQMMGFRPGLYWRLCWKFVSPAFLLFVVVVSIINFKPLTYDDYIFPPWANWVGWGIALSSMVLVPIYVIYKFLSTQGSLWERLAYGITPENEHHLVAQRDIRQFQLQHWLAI
UniProt P21918, whole entry: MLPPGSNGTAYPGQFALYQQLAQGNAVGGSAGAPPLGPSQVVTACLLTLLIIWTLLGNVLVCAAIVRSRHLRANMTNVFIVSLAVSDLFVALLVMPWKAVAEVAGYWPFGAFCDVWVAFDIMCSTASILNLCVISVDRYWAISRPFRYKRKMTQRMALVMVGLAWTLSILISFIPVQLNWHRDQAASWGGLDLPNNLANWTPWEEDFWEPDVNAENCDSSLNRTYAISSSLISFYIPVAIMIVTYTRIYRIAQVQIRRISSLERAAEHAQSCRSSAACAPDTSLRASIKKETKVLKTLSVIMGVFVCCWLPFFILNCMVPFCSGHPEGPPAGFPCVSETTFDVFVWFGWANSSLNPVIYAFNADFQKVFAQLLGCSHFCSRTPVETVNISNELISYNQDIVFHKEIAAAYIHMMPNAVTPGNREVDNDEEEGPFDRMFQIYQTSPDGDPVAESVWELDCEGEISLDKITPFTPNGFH
UniProt Q15910, whole entry, looked up: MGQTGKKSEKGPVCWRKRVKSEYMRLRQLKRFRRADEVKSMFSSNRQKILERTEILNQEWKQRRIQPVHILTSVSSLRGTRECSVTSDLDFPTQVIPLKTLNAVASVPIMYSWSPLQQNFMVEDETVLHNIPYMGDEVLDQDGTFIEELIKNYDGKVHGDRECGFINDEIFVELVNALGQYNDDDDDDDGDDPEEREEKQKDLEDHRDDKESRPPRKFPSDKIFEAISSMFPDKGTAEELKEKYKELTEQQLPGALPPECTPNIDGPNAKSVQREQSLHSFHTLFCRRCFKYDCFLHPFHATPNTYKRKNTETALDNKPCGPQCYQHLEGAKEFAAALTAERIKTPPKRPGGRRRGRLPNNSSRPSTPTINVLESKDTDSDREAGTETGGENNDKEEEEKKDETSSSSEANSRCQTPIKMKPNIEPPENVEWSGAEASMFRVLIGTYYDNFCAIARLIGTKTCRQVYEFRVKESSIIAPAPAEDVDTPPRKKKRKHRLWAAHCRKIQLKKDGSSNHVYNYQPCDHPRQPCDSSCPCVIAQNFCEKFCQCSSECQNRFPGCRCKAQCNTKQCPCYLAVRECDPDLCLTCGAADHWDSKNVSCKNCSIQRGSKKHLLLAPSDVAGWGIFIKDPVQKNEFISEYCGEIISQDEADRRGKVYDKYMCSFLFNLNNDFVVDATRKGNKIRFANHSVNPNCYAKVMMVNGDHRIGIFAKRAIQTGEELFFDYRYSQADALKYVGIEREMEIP

Legend:
[1] = biological target: T1, Calcium/calmodulin-dependent protein kinase type IV (Homo sapiens) (UniProt Q16566); experiment: Inhibition of full length human N-terminal GST tagged CaMK4 (1 to 473 end residues) expressed in baculovirus expression system using GS as peptide at 10 uM by mobility shift assay relative to control
T1 sequence (whole entry): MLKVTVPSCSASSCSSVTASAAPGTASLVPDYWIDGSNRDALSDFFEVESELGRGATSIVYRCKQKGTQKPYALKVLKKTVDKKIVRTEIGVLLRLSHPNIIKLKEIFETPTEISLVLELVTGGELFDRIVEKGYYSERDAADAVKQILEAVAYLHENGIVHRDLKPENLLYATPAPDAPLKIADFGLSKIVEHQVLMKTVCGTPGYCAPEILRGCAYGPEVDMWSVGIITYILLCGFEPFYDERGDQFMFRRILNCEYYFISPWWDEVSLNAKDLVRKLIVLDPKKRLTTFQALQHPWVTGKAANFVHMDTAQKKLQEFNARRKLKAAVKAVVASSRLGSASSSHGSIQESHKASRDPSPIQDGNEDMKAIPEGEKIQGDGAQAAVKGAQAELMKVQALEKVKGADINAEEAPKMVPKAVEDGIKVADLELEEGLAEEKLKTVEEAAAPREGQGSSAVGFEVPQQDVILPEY

[2] = biological target: T2, Histamine H3 receptor (Homo sapiens, UniProt Q9Y5N1); experiment: Antagonists activity at H3 receptor (unknown origin) at 1 uM
[3] = biological target: Sodium-dependent noradrenaline transporter (Homo sapiens, UniProt P23975); experiment: Inhibition of NET (unknown origin) at 10 uM by radioligand binding assay relative to control
[4] = biological target: D(1B) dopamine receptor (Homo sapiens) (UniProt P21918); experiment: Inhibition of dopamine D5 receptor (unknown origin) at 10 uM by radioligand binding assay relative to control
[5] = biological target: T2, Histamine H3 receptor; experiment: Inhibition of H3 receptor (unknown origin) at 10 uM by radioligand binding assay relative to control
[6] = biological target: Histone-lysine N-methyltransferase EZH2 (Homo sapiens, UniProt Q15910); experiment: Inhibition of EZH2 (unknown origin) at 10 uM relative to control
[7] = biological target: T2, Histamine H3 receptor; experiment: Agonist activity at H3 receptor (unknown origin) at 1 uM; format: functional

CCCc1cc(C)[nH]c(=O)c1CNC(=O)c1cc(-c2ccc(N3CCN(C(C)C)CC3)nc2)cc2c1cnn2C(C)C
inhibition [1]: 20%
Activity [2]: inactive
inhibition [3]: 83%
inhibition [4]: 20%
inhibition [5]: 95%
inhibition [6]: > 20%
Activity [7]: inactive
